Protein sequences, listed by entry. Tags and fused reporters are not part of them.
UniProt Q86WV6, whole entry H232R: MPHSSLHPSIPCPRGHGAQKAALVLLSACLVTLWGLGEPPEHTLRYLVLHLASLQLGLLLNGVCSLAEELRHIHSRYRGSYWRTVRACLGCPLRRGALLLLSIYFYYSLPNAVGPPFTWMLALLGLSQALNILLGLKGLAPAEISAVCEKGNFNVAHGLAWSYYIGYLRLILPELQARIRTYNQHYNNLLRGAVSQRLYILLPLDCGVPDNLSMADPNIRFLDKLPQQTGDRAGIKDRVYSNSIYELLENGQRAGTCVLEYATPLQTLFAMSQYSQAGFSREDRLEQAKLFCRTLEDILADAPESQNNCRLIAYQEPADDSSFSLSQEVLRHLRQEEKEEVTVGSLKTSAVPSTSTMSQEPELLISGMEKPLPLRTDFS

According to US12318403B2, “2′3′-cyclic dinucleotides and prodrugs thereof” (INSTITUTE OF ORGANIC CHEMISTRY AND BIOCHEMISTRY ASCR, V.V.I., priority 2019, dated 2025):

Target: human wild type STING (WT STING) (Homo sapiens, UniProt Q86WV6, H232R)
Assay: 293T WT STING standard reporter assay
Type: cell-based
Conditions: 293T WT STING EC50, 293T wtSTING-FL cells; standard reporter assay without digitonin; 7 hours; ISRE firefly luciferase

CCCCCCCCCCCCOC(=O)OCSP1(=O)OC[C@H]2O[C@@H](n3cnc4c(N)ncnc43)[C@H](F)[C@@H]2OCP(=O)(O)OC[C@H]2O[C@@H](n3cnc4c(=O)[nH]cnc43)[C@H](O1)[C@@H]2F (stereo partly drawn) [Compound 58b, {[(1S,6R,8R,9R,10R,16R,18R,19R)-8-(6-amino-9H-purin-9-yl)-9,19-difluoro-13-hydroxy-3,13-dioxo-18-(6-oxo-6,9-dihydro-1H-purin-9-yl)-2,4,7,11,14,17-hexaoxa-3λ^5,13λ^5-diphosphatricyclo[14.2.1.0^6,10]nonadecan-3-yl]sulfanyl}methyl dodecyl carbonate]
EC50: 80 nM

CCCCCCCCCCCCOC(=O)OCSP1(=O)OC[C@H]2O[C@@H](n3cnc4c(N)ncnc43)[C@H](F)[C@@H]2OCP(=O)(O)OC[C@H]2O[C@@H](n3cnc4c(=O)[nH]c(N)nc43)[C@H](O1)[C@@H]2F (stereo partly drawn) [Compound 59b, {[(1S,6R,8R,9R,10R,16R,18R,19R)-18-(2-amino-6-oxo-6,9-dihydro-1H-purin-9-yl)-8-(6-amino-9H-purin-9-yl)-9,19-difluoro-13-hydroxy-3,13-dioxo-2,4,7,11,14,17-hexaoxa-3λ^5,13λ^5-diphosphatricyclo[14.2.1.0^6,10]nonadecan-3-yl]sulfanyl}methyl dodecyl carbonate]
EC50: 80 nM

CCCCCC(=O)Oc1ccc(C(=O)OCSP2(=O)OC[C@H]3O[C@@H](n4cnc5c(N)ncnc54)[C@H](F)[C@@H]3OCP(=O)(O)OC[C@H]3O[C@@H](n4cnc5c(=O)[nH]c(N)nc54)[C@H](O2)[C@@H]3F)cc1 (stereo partly drawn) [Compound 60b, {[(1S,6R,8R,9R,10R,16R,18R,19R)-18-(2-amino-6-oxo-6,9-dihydro-1H-purin-9-yl)-8-(6-amino-9H-purin-9-yl)-9,19-difluoro-13-hydroxy-3,13-dioxo-2,4,7,11,14,17-hexaoxa-3λ^5,13λ^5-diphosphatricyclo[14.2.1.0^6,10]nonadecan-3-yl]sulfanyl}methyl 4-(hexanoyloxy)benzoate]
EC50: 400 nM

CC(C)(C)C(=O)OCOc1ccc(C(=O)OCSP2(=O)OC[C@H]3O[C@@H](n4cnc5c(N)ncnc54)[C@H](F)[C@@H]3OCP(=O)(O)OC[C@H]3O[C@@H](n4cnc5c(=O)[nH]cnc54)[C@H](O2)[C@@H]3F)cc1 (stereo partly drawn) [Compound 61b, {[(1S,6R,8R,9R,10R,16R,18R,19R)-8-(6-amino-9H-purin-9-yl)-9,19-difluoro-13-hydroxy-3,13-dioxo-18-(6-oxo-6,9-dihydro-1H-purin-9-yl)-2,4,7,11,14,17-hexaoxa-3λ^5,13λ^5-diphosphatricyclo[14.2.1.0^6,10]nonadecan-3-yl]sulfanyl}methyl 4-{[(2,2-dimethylpropanoyl)oxy]methoxy}benzoate]
EC50: 4000 nM

CC(C)(C)C(=O)OCOc1ccc(C(=O)OCSP2(=O)OC[C@H]3O[C@@H](n4cnc5c(N)ncnc54)[C@H](F)[C@@H]3OCP(=O)(O)OC[C@H]3O[C@@H](n4cnc5c(=O)[nH]c(N)nc54)[C@H](O2)[C@@H]3F)cc1 (stereo partly drawn) [Compound 62b, {[(1S,6R,8R,9R,10R,16R,18R,19R)-18-(2-amino-6-oxo-6,9-dihydro-1H-purin-9-yl)-8-(6-amino-9H-purin-9-yl)-9,19-difluoro-13-hydroxy-3,13-dioxo-2,4,7,11,14,17-hexaoxa-3λ^5,13λ^5-diphosphatricyclo[14.2.1.0^6,10]nonadecan-3-yl]sulfanyl}methyl 4-{[(2,2-dimethylpropanoyl)oxy]methoxy}benzoate]
EC50: 300 nM

CCCCCCCC(=O)OCSP1(=O)OC[C@H]2O[C@@H](n3cnc4c(N)ncnc43)[C@H](F)[C@@H]2OCP(=O)(O)OC[C@H]2O[C@@H](n3cnc4c(=O)[nH]cnc43)[C@H](O1)[C@@H]2F (stereo partly drawn) [Compound 63b, {[(1S,6R,8R,9R,10R,16R,18R,19R)-8-(6-amino-9H-purin-9-yl)-9,19-difluoro-13-hydroxy-3,13-dioxo-18-(6-oxo-6,9-dihydro-1H-purin-9-yl)-2,4,7,11,14,17-hexaoxa-3λ^5,13λ^5-diphosphatricyclo[14.2.1.0^6,10]nonadecan-3-yl]sulfanyl}methyl octanoate]
EC50: 600 nM

CCCCCC(=O)OCSP1(=O)OC[C@H]2O[C@@H](n3cnc4c(N)ncnc43)[C@H](F)[C@@H]2OCP(=O)(O)OC[C@H]2O[C@@H](n3cnc4c(=O)[nH]cnc43)[C@H](O1)[C@@H]2F (stereo partly drawn) [Compound 65b, {[(1S,6R,8R,9R,10R,16R,18R,19R)-8-(6-amino-9H-purin-9-yl)-9,19-difluoro-13-hydroxy-3,13-dioxo-18-(6-oxo-6,9-dihydro-1H-purin-9-yl)-2,4,7,11,14,17-hexaoxa-3λ^5,13λ^5-diphosphatricyclo[14.2.1.0^6,10]nonadecan-3-yl]sulfanyl}methyl hexanoate]
EC50: 1600 nM

CCCCCCCCCCCCCCCCCC(=O)OCSP1(=O)OC[C@H]2O[C@@H](n3cnc4c(N)ncnc43)[C@H](F)[C@@H]2OCP(=O)(O)OC[C@H]2O[C@@H](n3cnc4c(=O)[nH]cnc43)[C@H](O1)[C@@H]2F (stereo partly drawn) [Compound 66b, {[(1S,6R,8R,9R,10R,16R,18R,19R)-8-(6-amino-9H-purin-9-yl)-9,19-difluoro-13-hydroxy-3,13-dioxo-18-(6-oxo-6,9-dihydro-1H-purin-9-yl)-2,4,7,11,14,17-hexaoxa-3λ^5,13λ^5-diphosphatricyclo[14.2.1.0^6,10]nonadecan-3-yl]sulfanyl}methyl octadecanoate]
EC50: 40 nM

CCCCCCOC(=O)OCSP1(=O)OC[C@H]2O[C@@H](n3cnc4c(N)ncnc43)[C@H](F)[C@@H]2OCP(=O)(O)OC[C@H]2O[C@@H](n3cnc4c(=O)[nH]cnc43)[C@H](O1)[C@@H]2F (stereo partly drawn) [Compound 67b, {[(1S,6R,8R,9R,10R,16R,18R,19R)-8-(6-amino-9H-purin-9-yl)-9,19-difluoro-13-hydroxy-3,13-dioxo-18-(6-oxo-6,9-dihydro-1H-purin-9-yl)-2,4,7,11,14,17-hexaoxa-3λ^5,13λ^5-diphosphatricyclo[14.2.1.0^6,10]nonadecan-3-yl]sulfanyl}methyl hexyl carbonate]
EC50: 3800 nM

CCCCCCCCOC(=O)OCSP1(=O)OC[C@H]2O[C@@H](n3cnc4c(N)ncnc43)[C@H](F)[C@@H]2OCP(=O)(O)OC[C@H]2O[C@@H](n3cnc4c(=O)[nH]cnc43)[C@H](O1)[C@@H]2F (stereo partly drawn) [Compound 70b, {[(1S,6R,8R,9R,10R,16R,18R,19R)-8-(6-amino-9H-purin-9-yl)-9,19-difluoro-13-hydroxy-3,13-dioxo-18-(6-oxo-6,9-dihydro-1H-purin-9-yl)-2,4,7,11,14,17-hexaoxa-3λ^5,13λ^5-diphosphatricyclo[14.2.1.0^6,10]nonadecan-3-yl]sulfanyl}methyl octyl carbonate]
EC50: 900 nM

CCCCCCCCCCOC(=O)OCSP1(=O)OC[C@H]2O[C@@H](n3cnc4c(N)ncnc43)[C@H](F)[C@@H]2OCP(=O)(O)OC[C@H]2O[C@@H](n3cnc4c(=O)[nH]cnc43)[C@H](O1)[C@@H]2F (stereo partly drawn) [Compound 71b, {[(1S,6R,8R,9R,10R,16R,18R,19R)-8-(6-amino-9H-purin-9-yl)-9,19-difluoro-13-hydroxy-3,13-dioxo-18-(6-oxo-6,9-dihydro-1H-purin-9-yl)-2,4,7,11,14,17-hexaoxa-3λ^5,13λ^5-diphosphatricyclo[14.2.1.0^6,10]nonadecan-3-yl]sulfanyl}methyl decyl carbonate]
EC50: 200 nM

CCCCCCCCCCCCCCOC(=O)OCSP1(=O)OC[C@H]2O[C@@H](n3cnc4c(N)ncnc43)[C@H](F)[C@@H]2OCP(=O)(O)OC[C@H]2O[C@@H](n3cnc4c(=O)[nH]cnc43)[C@H](O1)[C@@H]2F (stereo partly drawn) [Compound 72b, {[(1S,6R,8R,9R,10R,16R,18R,19R)-8-(6-amino-9H-purin-9-yl)-9,19-difluoro-13-hydroxy-3,13-dioxo-18-(6-oxo-6,9-dihydro-1H-purin-9-yl)-2,4,7,11,14,17-hexaoxa-3λ^5,13λ^5-diphosphatricyclo[14.2.1.0^6,10]nonadecan-3-yl]sulfanyl}methyl tetradecyl carbonate]
EC50: 80 nM

CCCCCCCCCCCCCCCCOC(=O)OCSP1(=O)OC[C@H]2O[C@@H](n3cnc4c(N)ncnc43)[C@H](F)[C@@H]2OCP(=O)(O)OC[C@H]2O[C@@H](n3cnc4c(=O)[nH]cnc43)[C@H](O1)[C@@H]2F (stereo partly drawn) [Compound 73b, {[(1S,6R,8R,9R,10R,16R,18R,19R)-8-(6-amino-9H-purin-9-yl)-9,19-difluoro-13-hydroxy-3,13-dioxo-18-(6-oxo-6,9-dihydro-1H-purin-9-yl)-2,4,7,11,14,17-hexaoxa-3λ^5,13λ^5-diphosphatricyclo[14.2.1.0^6,10]nonadecan-3-yl]sulfanyl}methyl hexadecyl carbonate]
EC50: 60 nM

CCCCCCCCCCCCCCCCCCOC(=O)OCSP1(=O)OC[C@H]2O[C@@H](n3cnc4c(N)ncnc43)[C@H](F)[C@@H]2OCP(=O)(O)OC[C@H]2O[C@@H](n3cnc4c(=O)[nH]cnc43)[C@H](O1)[C@@H]2F (stereo partly drawn) [Compound 74b, {[(1S,6R,8R,9R,10R,16R,18R,19R)-8-(6-amino-9H-purin-9-yl)-9,19-difluoro-13-hydroxy-3,13-dioxo-18-(6-oxo-6,9-dihydro-1H-purin-9-yl)-2,4,7,11,14,17-hexaoxa-3λ^5,13λ^5-diphosphatricyclo[14.2.1.0^6,10]nonadecan-3-yl]sulfanyl}methyl octadecyl carbonate]
EC50: 30 nM
